Results reported in patent US20240158369A1, “PYRIMIDINE COMPOUND AS WEE-1 INHIBITOR” (WIGEN BIOMEDICINE TECHNOLOGY (SHANGHAI) CO., LTD., priority 2021, published 2024).

Sequences of proteins named here, by UniProt entry; tags and fusion partners are left off.
UniProt P30291, whole entry: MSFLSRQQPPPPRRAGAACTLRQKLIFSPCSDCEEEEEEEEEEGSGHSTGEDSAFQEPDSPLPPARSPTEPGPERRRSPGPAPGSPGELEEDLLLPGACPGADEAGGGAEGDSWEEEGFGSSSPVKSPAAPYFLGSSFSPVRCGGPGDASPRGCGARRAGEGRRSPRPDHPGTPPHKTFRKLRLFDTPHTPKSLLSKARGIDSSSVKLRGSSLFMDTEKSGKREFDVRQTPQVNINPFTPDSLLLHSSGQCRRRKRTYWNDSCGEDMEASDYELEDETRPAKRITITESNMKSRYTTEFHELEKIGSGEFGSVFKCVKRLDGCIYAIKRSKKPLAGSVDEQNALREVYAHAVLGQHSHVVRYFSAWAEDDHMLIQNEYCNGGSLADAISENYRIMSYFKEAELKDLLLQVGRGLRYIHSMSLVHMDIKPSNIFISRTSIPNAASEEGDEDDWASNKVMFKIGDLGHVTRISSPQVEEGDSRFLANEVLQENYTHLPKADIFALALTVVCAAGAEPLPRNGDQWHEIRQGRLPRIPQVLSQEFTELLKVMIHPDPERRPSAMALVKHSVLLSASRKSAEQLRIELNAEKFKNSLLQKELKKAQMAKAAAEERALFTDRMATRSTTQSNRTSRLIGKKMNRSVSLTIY

Legend:
[1] = biological target: recombinant protein Wee-1 (Homo sapiens (Human), UniProt P30291); experiment: HTRF assay for inhibiting enzymatic activity of recombinant protein Wee-1; assay type: biochemical; conditions: read-out: (IC50) Inhibitory activity against recombinant protein Wee-1, compounds up to 200 nM
MIA PaCa-2 cells = experiment: In-vitro anti-proliferative activity in combination with gemcitabine on MIA PaCa-2 cells; assay type: cell-based; conditions: read-out: in combination with 20 nM GMC IC50, 72 h, with 20 nM gemcitabine

| Compound | IC50 [1] [nM] | IC50 (MIA PaCa-2 cells) [nM] |
| --- | --- | --- |
| CN1CCc2c(CCCO)cc(Nc3ncc(C#N)c(Nc4cccc(N=S(C)(C)=O)n4)n3)cc2C1 | < 10 | 1.1 |
| CC(C)N1CCc2ccc(Nc3ncc(C#N)c(Nc4cccc(N=S(C)(C)=O)n4)n3)cc2C1 | < 10 |  |
